The assay deals with T1, μ-opioid receptor (Rattus norvegicus, UniProt P33535).
T1 construct: from tissue; host or cells: rat (Sprague Dawley) thalamic membranes
The experiment in a line: Stimulation of [35S]GTPγS binding to rat thalamic membranes (receptor activation of G proteins). It is filed as biochemical, Rat (Sprague Dawley).

The chains behind the UniProt entries cited, without tags or fusion partners.
UniProt P33535, whole entry: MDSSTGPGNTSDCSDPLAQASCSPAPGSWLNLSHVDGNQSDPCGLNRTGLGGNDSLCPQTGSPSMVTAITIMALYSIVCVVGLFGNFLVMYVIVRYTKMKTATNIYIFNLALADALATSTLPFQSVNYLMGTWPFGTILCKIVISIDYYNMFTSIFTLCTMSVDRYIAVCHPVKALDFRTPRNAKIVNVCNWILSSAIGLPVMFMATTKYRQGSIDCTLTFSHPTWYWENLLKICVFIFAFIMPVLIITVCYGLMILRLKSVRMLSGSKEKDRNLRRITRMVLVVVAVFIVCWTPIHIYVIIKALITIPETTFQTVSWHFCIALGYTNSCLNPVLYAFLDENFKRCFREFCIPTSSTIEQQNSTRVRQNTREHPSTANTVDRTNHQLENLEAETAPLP

pEC50: −log10 of the molar value.

The pEC50 is −log10 of the EC50, conventionally taken in molar units. High values mean a low EC50, low ones a high EC50. As to `C[C@@H](NC(=O)[C@@H](N)Cc1ccc(O)cc1)C(=O)NCC(=O)N(C)[C@@H](Cc1ccccc1)C(=O)NCCO` [DAMGO], the pEC50 was 8.13.

Values taken from US8178524B2, “Noribogaine in the treatment of pain and drug addiction” (Demerx, Inc., priority 1997, dated 2012).
